Source: US20140271644A1, “COMBINATION/ADJUVANT THERAPY FOR WT-1-POSITIVE DISEASE” (Memorial Sloan-Kettering Cancer Center, priority 2013, published 2014)

In the case of `Cc1nc(Nc2ncc(C(=O)Nc3c(C)cccc3Cl)s2)cc(N2CCN(CCO)CC2)n1` [dasatinib], the “Clinical condition of mice and deaths” value (after dasatinib dose was decreased to 20 mg/kg) is reported as “continued to be in poor health, with 1 death” and the “Death in combination group” value (fifth mouse of the dasatinib and ESK combination group) is reported as “died from dasatinib toxicity on day 8 of therapy”.
